Test results published in the supplement of paper PMC12137928.

Experiments:
[1] = system: HCT116; conditions: 72 h
In short: (§1)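 Luminescence was read with CellTiter-Glo in HCT116 cells seeded at 250 per well in 1536-well plates. Signals were scaled between vehicle at 0% and positive control at -100%, then pattern-corrected. IC50 and maximal efficacy were obtained by fitting a four-parameter Hill equation.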

[2] = system: HCT116; experiment: efficacy (maximum % inhibition of viability vs DMSO); higher = more cytotoxic; conditions: 72 h
In short: as §1

IC50 cell viability ([1]; ICRF193 0 nM): 29.1 µM
IC50 cell viability ([1]; ICRF193 200 nM): 16.4 µM
SMILES: COc1cc(Br)c(C[N+]2(CCOCCC3CCC4CC3C4(C)C)CCOCC2)cc1OC (centres undefined) [Pinaverium bromide]
efficacy ([2]; ICRF193 0 nM): 99.4%
efficacy ([2]; ICRF193 200 nM): 108%
